Target: T1, Peroxisome proliferator-activated receptor alpha (Homo sapiens, UniProt Q07869)
T1 sequence (Q07869 whole entry): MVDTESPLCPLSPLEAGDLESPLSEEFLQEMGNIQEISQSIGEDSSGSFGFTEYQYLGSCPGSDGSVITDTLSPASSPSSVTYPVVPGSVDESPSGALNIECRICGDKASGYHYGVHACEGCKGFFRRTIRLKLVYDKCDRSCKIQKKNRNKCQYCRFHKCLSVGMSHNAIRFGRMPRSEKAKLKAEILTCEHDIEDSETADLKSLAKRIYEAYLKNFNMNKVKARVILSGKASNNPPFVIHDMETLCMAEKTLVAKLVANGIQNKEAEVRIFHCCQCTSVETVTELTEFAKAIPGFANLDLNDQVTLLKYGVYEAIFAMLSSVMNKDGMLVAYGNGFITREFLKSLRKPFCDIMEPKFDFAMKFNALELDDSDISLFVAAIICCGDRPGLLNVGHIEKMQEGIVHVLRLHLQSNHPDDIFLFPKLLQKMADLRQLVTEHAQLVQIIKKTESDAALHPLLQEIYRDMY

`Cc1nc(-c2ccc(C(F)(F)F)cc2)sc1C(=O)NCc1ccc(OC(C)(C)C(=O)O)cc1` [GW590735] was tested, and the EC50 was 4 nM.
